{
  "sequences": {"note": "Chains of the proteins cited; added tags and fusions are not shown.", "UniProt P27338, whole entry": "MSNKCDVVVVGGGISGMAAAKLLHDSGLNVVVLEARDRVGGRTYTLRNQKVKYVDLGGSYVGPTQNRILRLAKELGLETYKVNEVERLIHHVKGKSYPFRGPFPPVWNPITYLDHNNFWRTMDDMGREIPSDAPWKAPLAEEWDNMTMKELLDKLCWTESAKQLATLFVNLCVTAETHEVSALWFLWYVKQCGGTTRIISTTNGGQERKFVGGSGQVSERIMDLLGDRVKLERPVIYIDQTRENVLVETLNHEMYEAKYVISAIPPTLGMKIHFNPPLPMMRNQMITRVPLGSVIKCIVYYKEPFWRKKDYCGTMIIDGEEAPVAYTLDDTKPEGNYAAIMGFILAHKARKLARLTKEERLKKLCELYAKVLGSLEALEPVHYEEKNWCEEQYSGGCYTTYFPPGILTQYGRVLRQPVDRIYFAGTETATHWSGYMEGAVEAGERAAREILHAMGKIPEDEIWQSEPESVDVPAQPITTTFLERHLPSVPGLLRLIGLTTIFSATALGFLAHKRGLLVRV", "UniProt P21397, whole entry": "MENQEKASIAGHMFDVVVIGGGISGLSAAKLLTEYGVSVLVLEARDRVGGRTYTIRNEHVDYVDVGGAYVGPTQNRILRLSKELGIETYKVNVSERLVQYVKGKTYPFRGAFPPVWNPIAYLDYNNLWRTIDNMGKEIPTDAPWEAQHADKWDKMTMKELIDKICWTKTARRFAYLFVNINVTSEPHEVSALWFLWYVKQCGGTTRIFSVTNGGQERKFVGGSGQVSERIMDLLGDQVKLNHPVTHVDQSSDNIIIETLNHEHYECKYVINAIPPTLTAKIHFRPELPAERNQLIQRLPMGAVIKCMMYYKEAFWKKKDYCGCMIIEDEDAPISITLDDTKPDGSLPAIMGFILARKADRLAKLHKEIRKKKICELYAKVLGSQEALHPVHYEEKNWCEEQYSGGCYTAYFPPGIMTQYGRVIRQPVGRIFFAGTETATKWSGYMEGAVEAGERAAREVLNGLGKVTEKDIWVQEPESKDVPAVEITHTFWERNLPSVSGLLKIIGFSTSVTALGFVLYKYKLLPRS"},
  "source": "ChEMBL document CHEMBL4138062",
  "about": "“Pyrazolobenzothiazine-based carbothioamides as new structural leads for the inhibition of monoamine oxidases: design, synthesis, in vitro bioevaluation and molecular docking studies” (Medchemcomm, 2017)",
  "key": {"[1]": {"molecular_target": "Amine oxidase [flavin-containing] B (Homo sapiens, UniProt P27338)"}, "[2]": {"molecular_target": "Amine oxidase [flavin-containing] A (Homo sapiens, UniProt P21397)", "assay": "Inhibition of human MAOA pre-incubated for 10 mins before p-tyramine substrate addition and measured after 10 mins by amplex red reagent-based microplate fluorescence reader analysis"}},
  "data": [
    {"molecule": "Cc1cccc(C)c1NC(=S)N/N=C/c1ccc(-n2nc3c(c2C)N(C)S(=O)(=O)c2ccccc2-3)cc1", "values": [
      {"measurement": "IC50", "setting": "[1]", "value": 6.11, "unit": "µM"},
      {"measurement": "IC50", "setting": "[2]", "value": 10, "unit": "nM"}
    ]}
  ]
}
